Assay results reported in patent publication US9796732B2, “Pyridopyrimidine or pyrimidopyrimidine compound, prepration method, pharmaceutical composition, and use thereof” (Shanghai Institute of Materia Medica, Chinese Academy of …, priority 2013, dated 2017).

What was measured:
human brain glioma U87MG = experiment: Cell proliferation assay (MTS), U87MG; format: cell-based; conditions: U-87 MG, 72 h, read-out: U87MG IC50 (μM)
Method: (§1) Cell proliferation assay was based on two types of cell lines, i.e., human brain glioma U87MG and human prostate cancer LNCap, both of which were from ATCC. U87MG and LNCap contain PTEN gene deletion, and belongs to mTOR signal-dependent tumor cells. Cell culture media and related reagents were from GIBCO. […] Cells/compound was cultured for 3 days, and MTS method was used to test cell proliferation. […] After a suitable time of incubation, the proliferation assay results was recorded on a 96 well plate microplate reader.
(§2) The experimental data were processed with Microsoft Office Excel and Graphpad PRISM 5 to calculate IC50.

[1] = tested on: human prostate cancer LNCap; experiment: Cell proliferation assay (MTS), LNCap; format: cell-based; conditions: 72 h, read-out: LNCap IC50 (μM)
Method: as §1, §2

COc1ccc(-c2cc3nc(N4CCOC[C@@H]4C)nc(N4CCOCC4)c3cn2)cc1CO [Compound 14, (S)-(2-methoxy-5-(2-(3-methylmorpholinyl-4-morpholinyl)pyrido[4,3-d]pyrimidin-7-yl)phenyl)methanol]
IC50 (human brain glioma U87MG): 11.4 µM
IC50 [1]: 3.37 µM
